# Measurements taken from US10093674B2, “Supramolecular nanofibers and hydrogels based on nucleic acids functionalized with nucleobases” (Brandeis University, priority 2011, dated 2018).
# Conditions: hydrogel, 3.0 wt %
Substance,critical strain [%],storage modulus [KPa]
Adenine-Phe-glucosamine [1A′],0.23,6
Cytosine-Phe-Phe-Glucosamine [2C′],0.27,220
Guanine-Phe-glucosamine [1G′],0.28,139
Thymine-Phe-Phe-glucosamine [2T′],0.31,32
Thymine-Phe-glucosamine [1T′],0.5,34
Guanine-Phe-Phe-glucosamine [2G′],0.18,101
Adenine-Phe-Phe-glucosamine [2A′],0.39,0.37

# Conditions: hydrogel, 2.0 wt %
row,Substance,storage modulus [Pa]
1,Adenine-Phe-Phe [Compound 1A],8090
2,Cytosine-Phe-Phe [Compound 1C],26
3,Guanine-Phe-Phe [Compound 1G],12613
4,Thymine-Phe-Phe [Compound 1T],6346
